Data published in patent US5138040A, “Composition for magnetic resonance imaging” (Mallinckrodt Medical, Inc., priority 1991, dated 1992).

Tests used:
[1] = 20 MHz, 40° C.
[2] = test system: mouse; settings: i.v., 0.5M solution, confidence limit of 27.3-38.8 mmol/kg

In the case of “{Aqua(N,N"-bis(N""-2-methoxyethylcarbamoylmethyl-N"'-methylcarbamoylmethyl)diethylenetraimine-N,N', N"-tri acetate)}gadolinium(III)”, the R1 relaxivity rate ([1]; 4% bovine serum albumin (BSA)) is reported as 4.6 mmol⁻¹ s⁻¹, the R1 relaxivity rate ([1]; sterile water for injection (SWFI)) is reported as 4.3 mmol⁻¹ s⁻¹ and the LD50 [2] is reported as 32.5 mmol/kg.

Where two headings read alike, the source gives them in different places.
